{
  "sequences": {"note": "By UniProt entry, the sequences of proteins in these tests, tags left out.", "UniProt P08172, whole entry": "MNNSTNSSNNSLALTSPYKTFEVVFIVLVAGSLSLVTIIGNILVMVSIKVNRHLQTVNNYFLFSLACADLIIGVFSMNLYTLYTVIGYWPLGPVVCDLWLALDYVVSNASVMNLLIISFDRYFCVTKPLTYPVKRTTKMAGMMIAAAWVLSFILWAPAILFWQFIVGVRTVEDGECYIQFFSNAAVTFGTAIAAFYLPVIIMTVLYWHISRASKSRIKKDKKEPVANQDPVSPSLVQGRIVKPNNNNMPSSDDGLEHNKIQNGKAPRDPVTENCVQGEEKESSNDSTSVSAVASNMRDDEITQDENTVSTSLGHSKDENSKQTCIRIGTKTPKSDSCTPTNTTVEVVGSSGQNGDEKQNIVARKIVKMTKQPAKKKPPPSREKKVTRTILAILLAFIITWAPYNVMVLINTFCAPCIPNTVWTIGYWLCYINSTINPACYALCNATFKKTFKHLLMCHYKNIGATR"},
  "source": "ChEMBL document CHEMBL3616390",
  "about": "“Design and synthesis of N-[6-(Substituted Aminoethylideneamino)-2-Hydroxyindan-1-yl]arylamides as selective and potent muscarinic M₁ agonists” (Bioorg Med Chem Lett, 2015)",
  "target": "Muscarinic acetylcholine receptor M2 (Homo sapiens, UniProt P08172)",
  "assay": "Agonist activity at human muscarinic M2 receptor expressed in CHO cells after 30 mins by GTPgamma35S binding assay",
  "format": "functional, cell-based",
  "data": [
    {"smiles": "CCCCCCOc1nsnc1C1=CCCN(C)C1", "note": "[XANOMELINE]", "values": [
      {"measurement": "EC50", "value": 121, "unit": "nM"}
    ]}
  ]
}
